Source: article PMC8725971, “Polycyclic nitrogen heterocycles as potential thymidine phosphorylase inhibitors: synthesis, biological evaluation, and molecular docking study” (Journal of Enzyme Inhibition and Medicinal Chemistry, 2021)

Chains of the proteins cited; added tags and fusions are not shown. Lines headed by an entry give the natural chain unless they say otherwise; changes in a name come on top.
UniProt P07650: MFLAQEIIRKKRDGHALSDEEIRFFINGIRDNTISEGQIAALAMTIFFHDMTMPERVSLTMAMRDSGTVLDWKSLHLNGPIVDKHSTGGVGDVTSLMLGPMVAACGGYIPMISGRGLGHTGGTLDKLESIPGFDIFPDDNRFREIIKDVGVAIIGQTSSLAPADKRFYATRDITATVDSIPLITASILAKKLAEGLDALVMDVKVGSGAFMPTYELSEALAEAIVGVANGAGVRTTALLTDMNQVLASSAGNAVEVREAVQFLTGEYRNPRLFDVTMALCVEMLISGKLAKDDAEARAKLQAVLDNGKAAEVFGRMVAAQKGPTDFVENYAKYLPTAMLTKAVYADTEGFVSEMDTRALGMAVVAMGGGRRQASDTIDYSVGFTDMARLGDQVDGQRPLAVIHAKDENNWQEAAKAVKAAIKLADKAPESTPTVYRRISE

Molecular target: T1, E. coli TP (Escherichia coli, UniProt P07650)
T1 construct: purchased Sigma Aldrich T2807-1KU
Assay: In vitro E. coli thymidine phosphorylase inhibition, spectrophotometric assay at 290 nm
Type: biochemical
Conditions: 300 µM thymidine, pH 7.4, 25 °C
Protocol: The adopted protocol is a modification of the original method developed by Khan[51]. TP activity and inhibition assays were based on the phosphorolysis of thymidine to thymine, this conversion results in a significant spectrophotometric decrease. At 290 nm and pH 7.4, thymidine has a higher extinction coefficient than thymine (Δε = −480 M^−1 cm^−1). The absorbance at 290 nm was measured every 2 min for 30 min in 96-well plates at 25 °C.
Thymidine was dissolved in buffer (3 mM). […] All experiments were conducted in triplicate.
The method reported by Khan et al.[51] has been adapted to a screening in 96-well plates (200 µL well, UV-Star® 96-well microplate, Greiner). Each well contained 160 µL of 50 mM KH2PO4 buffer (pH 7.4), 0.006 U of E. coli TP (T2807-1KU, Sigma Aldrich), and 20 µL of the tested compound solution. […] The decrease in absorbance due to conversion of thymidine to thymine was followed during 30 min (PowerWave HT Microplate Reader, Biotek) at 25 °C, with one measure every 2 min and a 30 s shaking before each measure.

Compound: O=c1[nH]c(=O)c2cc[nH]c2[nH]1 [Compound 7-DX, 7-Deazaxanthine, reference compound]
- IC50: 28 µM
